The numbers were not newly measured in patent USRE32098E (Research and Education Institute, Inc., priority 1978, dated 1986), which cites them from elsewhere.

For the data set, the system named is proteins such as thyroxine-binding globulin (TBG), prealbumin (TBPA) and albumin. Conditions: cited from earlier work.

SMILES strings stand for the structures.

Regarding `N[C@@H](Cc1cc(I)c(Oc2cc(I)c(O)c(I)c2)c(I)c1)C(=O)O` [T4, thyroxine], the “bound to proteins in normal human serum” value is “about 99.97%”. The “present as unbound (dialyzable or free) hormone” value (normal human serum) is 0.03%.
